We go through two molecules from patent publication US20030139427A1, “Bicyclic pyrimidinyl derivatives and methods of use thereof” (OSI Pharmaceuticals Inc., priority 2002, published 2003).

Amino acid sequences for entries named in this document (tags omitted).
UniProt P0DMS8, whole entry: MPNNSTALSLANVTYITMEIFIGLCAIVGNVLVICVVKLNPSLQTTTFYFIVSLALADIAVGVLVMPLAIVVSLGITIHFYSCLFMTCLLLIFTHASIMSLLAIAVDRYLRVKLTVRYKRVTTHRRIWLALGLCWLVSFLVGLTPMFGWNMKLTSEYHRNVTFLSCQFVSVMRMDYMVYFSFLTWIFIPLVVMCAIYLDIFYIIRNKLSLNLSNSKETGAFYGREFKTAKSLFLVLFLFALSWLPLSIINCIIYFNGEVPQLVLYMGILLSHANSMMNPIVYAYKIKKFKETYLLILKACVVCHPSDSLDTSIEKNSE
UniProt P30542, whole entry: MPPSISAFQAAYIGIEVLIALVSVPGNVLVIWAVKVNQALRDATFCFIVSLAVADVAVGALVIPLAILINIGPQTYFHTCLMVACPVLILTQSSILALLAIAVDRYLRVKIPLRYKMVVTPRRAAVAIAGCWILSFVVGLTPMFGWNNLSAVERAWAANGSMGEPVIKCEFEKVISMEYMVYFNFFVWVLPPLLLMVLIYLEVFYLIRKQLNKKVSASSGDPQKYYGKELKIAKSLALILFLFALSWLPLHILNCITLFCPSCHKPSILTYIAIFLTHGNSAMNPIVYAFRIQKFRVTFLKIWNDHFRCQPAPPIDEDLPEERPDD

pKi: −log10 of the molar value.

The target of one assay is hA3R (Homo sapiens, UniProt P0DMS8). Description: Displacement binding of [3H]CPX, yeast membranes expressing human A3 receptor. The note with it: read-out: IC50 [nM] hA3R, 0.4 nM [3H]CPX.
The target of assay [1] is human A1 receptor subtype (Homo sapiens, UniProt P30542). Description: biochemical.

Turning to `C[C@H](Cc1ccccc1)Nc1ncnc2c1ncn2[C@@H]1O[C@H](CO)[C@@H](O)[C@H]1O` [(R)-PIA], on hA3R, the IC50 stood at 23.6 nM.
`CC(=O)NCCNc1nc(-c2ccccc2)nc2[nH]c(C)c(C)c12` [Compound 1300] gave a negative logarithm of the Ki (pKi) in assay [1] of 7.60 to 8.01.
